Read-outs that look alike come from different tables or passages of the source.

Chains of the proteins cited; added tags and fusions are not shown. Residues count along the entry.
UniProt P07711, 114-333 limits assumed: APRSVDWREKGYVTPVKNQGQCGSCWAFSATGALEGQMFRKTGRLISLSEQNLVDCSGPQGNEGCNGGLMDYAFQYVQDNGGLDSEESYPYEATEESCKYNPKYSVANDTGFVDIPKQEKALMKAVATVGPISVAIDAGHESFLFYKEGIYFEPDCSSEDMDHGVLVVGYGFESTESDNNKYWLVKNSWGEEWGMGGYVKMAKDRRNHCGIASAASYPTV

Experimental findings from US11952365B2, “Anti-viral compounds” (Aligos Therapeutics, Inc., priority 2020, dated 2024) are described below.

One data set concerns Huh7 cells. As to the kind of experiment: Compound-specific side effects on Huh7 cell viability (MTS).
The target in the next data set is human cathepsin L (Homo sapiens, UniProt P07711). Put plainly: cathepsin L assay. Format: biochemical. The settings on record: read-out: Cathepsin L IC50; 10 pM human cathepsin L, Z-FR-AMC 2 μM, class symbols. On the procedure:
For the cathepsin L assay, 10 pM of human cathepsin L (R&D Systems; Minneapolis, MN) was preincubated for 30 mins with test compounds. Reactions were initiated by the addition of a peptide substrate Z-FR-AMC (final concentration 2 μM, Anaspec; Fremont, CA). Fluorescence was measured at 2-minute intervals for 30 mins using a 355/460 excitation/emission filter module on an Envision plate reader (Perkin Elmer; Waltham, MA). The IC50 values were calculated for each assay by fitting the curves using a four-parameter equation in GraphPad Prism.

Another data set concerns HeLa cells. As to the kind of experiment: Cytotoxicity plates without OC43 virus (cell-titer-glo). The settings on record: class symbols.
Another data set deals with Vero E6-eGFP cells. Put plainly: Toxicity of compounds in the absence of virus (MTS-assay).
[1] abbreviates: read-out: Huh-7 (CC50), numeric bounds.
[2] abbreviates: read-out: Huh-7 (CC50), class symbols.
Where [3] appears, read: read-out: VeroE6 + CP (CC50), Vero E6-eGFP cells with CP-100356, absence of virus, class symbols.

Regarding `COc1cccc2[nH]c(C(=O)N3C[C@@H]4CCC[C@@H]4[C@H]3C(=O)N[C@@H](C[C@@H]3CCNC3=O)C(=O)C3CCCO3)cc12` (single isomer, unassigned) [69_A], the CC50 in the data set with Huh7 cells (setting [1]) is above 100 µM; with HeLa cells, above 10 µM. Besides, the IC50 at human cathepsin L was above 10 µM.
In the case of `COc1cccc2[nH]c(C(=O)N3C[C@@H]4CCC[C@@H]4[C@H]3C(=O)N[C@@H](C[C@@H]3CCNC3=O)C(=O)C3CCCO3)cc12` (single isomer, unassigned) [69_B], the figures for the CC50 with Huh7 cells (setting [1]) and in the data set on HeLa cells were above 100 µM and above 10 µM, respectively. The IC50 on human cathepsin L is above 10 µM.
Turning to `COc1cccc2[nH]c(C(=O)N3C[C@@H]4CCC[C@@H]4[C@H]3C(=O)N[C@@H](C[C@H]3CC(C)(C)NC3=O)C(=O)COCc3ccccc3)cc12`, the CC50 in the data set with Huh7 cells (setting [2]), in the data set with Vero E6-eGFP cells (setting [3]) and in the data set with HeLa cells was above 10 µM each time. Further, at human cathepsin L, the IC50 is above 10 µM.
Consider `COc1cccc2[nH]c(C(=O)N3C[C@@H]4CCC[C@@H]4[C@H]3C(=O)N[C@@H](C[C@@H]3CCNC3=O)C(=O)C(=O)N(C)Cc3ccccc3)cc12` [Compound 109A], for which the CC50 with Huh7 cells (setting [2]), in the data set with Vero E6-eGFP cells (setting [3]) and with HeLa cells was above 10 µM each time. The IC50 at human cathepsin L was above 10 µM.
`COc1cccc2[nH]c(C(=O)N3C[C@@H]4CCC[C@@H]4[C@H]3C(=O)N[C@@H](C[C@@H]3CCNC3=O)C(=O)C(=O)N(C)Cc3ccccc3)cc12` [109B]: the CC50 in the data set with Huh7 cells (setting [2]) is above 10 µM; with Vero E6-eGFP cells (read-out: VeroE6 + CP (CC50), Vero E6-eGFP cells with CP-100356, absence of virus, numeric bounds), above 50 µM; with HeLa cells it was above 10 µM. For the same compound, the IC50 on human cathepsin L was above 10 µM.
Consider `COc1cccc2[nH]c(C(=O)N3CC4CCCC4C3C(=O)NC(C=O)CC3CCNC3=O)cc12` (centres unmarked), for which the IC50 at human cathepsin L is above 10 µM. In addition, the CC50 with HeLa cells is above 10 µM.
